Hits are enriched below; roughly 13% of the tested compounds scored in any of these assays.
Sfp inh: qHTS Assay for Inhibitors of Bacillus subtilis Sfp phosphopantetheinyl transferase (PPTase); actives 3.5% (n = 310,000); AID 1490, 2009; Biochemical Sfp PPTase activity, qHTS; Potency, µM, for inactives: max response, negative = inhibition, usual class: inhibitors; 4'-phosphopantetheinyl transferase ffp (Bacillus subtilis), Q9F4F7; active means well fitted inhibition curve with a large enough effect; inconclusive means small, poorly fitted or top-dose-only effect, or another doubt; inactive means no such curve, though single readings can be large or run the other way;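 further: the enzyme is Sfp with the accession as filed and its product quenches rhodamine fluorescence; potency means the concentration at half of the fitted maximal effect; 0% = enzyme reaction without inhibitor and -100% = no enzyme wells; top concentration of the series not given in the record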
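With Hepes-Na pH 7.6 buffer containing 10 mM MgCl2, Sfp (15 nM) modified BHQ-2-YbbR (12.5 uM) using rhodamine-CoA (5 uM). Two reads 30 minutes apart at 525/598 nm yielded each well's rate.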
KDM4E inh: blocks human JMJD2E demethylase activity | Potency, µM (series often up to 57.1 µM), for inactives: top-dose activity change, negative = inhibition, most hits filed as inhibitors | AID 2147 | JMJD2E catalytic domain, FDH-coupled NADH fluorescence (FDH is formaldehyde dehydrogenase) | B2RXH2 | actives 1.6% (n = 230,000); active = well fitted inhibition curve with a large enough effect, not every such curve was filed as active; inconclusive = small, poorly fitted or top-dose-only effect, or another doubt; inactive = no such curve, though single readings can be large or run the other way;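 note: potency is the fitted concentration of half-maximal effect; 0% = wells with enzyme and -100% = buffer wells without enzyme; nearly all actives have a fitted effect of over 50% in size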
ALDH1A1 block: blocks purified human ALDH1A1 activity; actives 7.3% (n = 220,000); AID 1030; Potency, µM (highest dose often 75.3 µM), for inactives: top-dose activity, negative = inhibition, most hits filed as inhibitors; Purified ALDH1A1, NADH fluorescence, propionaldehyde substrate; active = well fitted inhibition curve with a large enough effect, not every such curve was filed as active; inconclusive = small, poorly fitted or top-dose-only effect, or another doubt; inactive = no such curve, though single readings can be large or run the other way;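 note: potency is the fitted concentration of half-maximal effect; plate controls were no enzyme wells and a reference inhibitor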
miR-21 reporter: raises the signal of a miR-21 reporter | AID 2288 | 340,000 tested, under 10 active | Potency, µM (series often up to 38.3 µM), without a hit: at the highest dose reporter change, positive = more light | HeLa miR-21 FLuc reporter, luciferase, 48 h; active = well fitted rising curve with a large enough effect; inconclusive = small, poorly fitted or top-dose-only effect; inactive = no such curve, though single readings can be large or run the other way;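 further: % of control where 0% means no effect; miR-21 action dims this reporter so a rising signal means less miR-21 action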
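Luminescence from a firefly luciferase reporter carrying a miR-21 binding site downstream, stably expressed under a CMV promoter in HeLa cells that make miR-21 endogenously, reports miRNA modulation after 48 h compound exposure up to approximately 40uM final.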
Lamin A splicing: modulators of lamin A splicing; HeLa LMNA splicing GFP/RFP minigene ratio, 48 h; Potency, µM (highest dose often 46.1 µM), for inactives: at the highest dose ratio change, negative = inhibition, actives largely listed as inhibitors; actives 0.01% (n = 200,000); active = well fitted inhibition curve with a large enough effect in the signal ratio, with a control signal flat, not every such curve was filed as active; inconclusive = small, poorly fitted or top-dose-only effect, or effect the other way, or a change in a side signal; the % refers to the signal ratio; note: potency is the fitted concentration of half-maximal effect; % is set by controls: 0 for no effect and ±100 for the full control effect
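S3 HeLa cells stably expressing lamin A-EGFP splicing minigene plus DsRed2, 600 cells/well, 48 h compound exposure at 37C. Laser-scanning cytometry; analysed as GFP (500-530 nm)/RFP (575-640 nm) total intensity ratio; 0.5% DMSO vehicle.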
G9a block: G9a (human) methyltransferase inhibition | Q96KQ7 | G9a H3K9 monomethylation, AlphaScreen, 2 h | Potency, µM (highest dose often 102 µM), for the others: at the top dose activity, negative = inhibition, usual class: inhibitors | actives 8.8% (n = 350,000) | AID 504332; note: potency is the fitted concentration of half-maximal effect; % is set by controls: 0 for no effect and ±100 for the full control effect; nearly all actives have a fitted effect of over 75% in size
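Step 1: enzyme (final 20 nM) with compound, 15 min RT. Step 2: substrate peptide 500 nM and SAM 20 uM, 2 h RT. Step 3: anti-H3K9me1 antibody and AlphaScreen beads, 10 min, then plate read.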
* hit, by the source's call; ? = inconclusive; nt = no result given; [ ] = dose if it differs, or a comment. Unless noted, calls come from the whole dose curve; as a rule, active = well fitted curve in the direction sought with a large enough effect; inconclusive = small, poorly fitted or top-dose-only effect, or another doubt; inactive = no such curve, though single readings can be large; an effect the other way counts as inactive or inconclusive.

The first 2 records, to show the layout:
# | Sfp inh | KDM4E inh | ALDH1A1 block | miR-21 reporter | Lamin A splicing | G9a block | SMILES
1 | 13.7% | nt | nt | 1.2% | nt | 5.9%[59 µM] | Cn1c(O)c(N=NC(=O)CNC(=O)/C=C/c2ccccc2)c2ccccc21
2 | 25.1µM* | ? | ? | -3.5% | 1.0% | 7.94µM* | CCC(C)(C)n1nnnc1C(c1cc2cc(C)cc(C)c2[nH]c1=O)N1CCCC1 (stereo not drawn)

The listing (from the top)
# | Sfp inh | KDM4E inh | ALDH1A1 block | miR-21 reporter | Lamin A splicing | G9a block | SMILES
1 | 13.7% | nt | nt | 1.2% | nt | 5.9%[59 µM] | Cn1c(O)c(N=NC(=O)CNC(=O)/C=C/c2ccccc2)c2ccccc21
2 | 25.1µM* | ? | ? | -3.5% | 1.0% | 7.94µM* | CCC(C)(C)n1nnnc1C(c1cc2cc(C)cc(C)c2[nH]c1=O)N1CCCC1 (stereo not drawn)
3 | -22.6% | ? | ? | -3.0% | -2.8% | 11.2µM* | CCC(C)(C)n1nnnc1C(c1cc2cccc(C)c2[nH]c1=O)N1CCCC1 (stereo not drawn)
4 | 63.1µM* | -1.3% | ? | -2.3% | 3.8% | -3.9%[12.7 µM] | CCC(C)(C)n1nnnc1C(c1cc2cc(C)cc(C)c2[nH]c1=O)N1CCN(Cc2ccc3c(c2)OCO3)CC1 (stereo not drawn)
5 | -0.8% | nt | nt | 0.5% | nt | ? | CCCn1c(=O)[nH]c(=O)c2c1nc(-c1ccc(C#N)cc1)n2CCOC
6 | 6.0% | nt | nt | -1.7% | nt | 26.4% | CCCCn1c(-c2cccc(F)c2)nc2c1c(=O)[nH]c(=O)n2CC(C)C
7 | 35.5µM* | -0.4% | ? | -6.9% | -10.4% | ? | CCCCn1c(-c2ccsc2)nc2c1c(=O)[nH]c(=O)n2CCC
8 | -2.6% | ? | ? | 4.0% | 4.9% | 25.1µM* | CCCn1c(=O)[nH]c(=O)c2c1nc(-c1ccc(OC(F)(F)C(F)C(F)(F)F)cc1)n2CCOC (stereo not drawn)
9 | 1.8% | nt | nt | 0.2% | nt | 50.1µM* | CCCCn1c(-c2ccc(OC(F)F)cc2)nc2c1c(=O)[nH]c(=O)n2CC(C)C
10 | 7.7% | nt | nt | ? | nt | 35.5µM* | CCCCn1c(=O)[nH]c(=O)c2c1nc(Cn1ncc(Cl)c(Cl)c1=O)n2CCC
11 | 10.8% | nt | nt | -18.0% | nt | 24.5% | Cc1nc(NC(=O)CCN2C(=O)C3CC=CCC3C2=O)sc1C (stereo not drawn)
12 | nt | nt | nt | 4.9% | nt | ? | Cn1c(=O)n(C)c2cc(N3CCCCC3)c(NC(=O)c3c(F)cccc3F)cc21
13 | 16.4% | nt | nt | -4.2% | nt | 13.1% | CN1CCN(C(=O)c2ccccc2NC(=O)c2ccccc2)CC1
14 | 13.7% | -19.8% | 17.8µM* | -19.2% | -6.1% | 11.7%[59 µM] | COc1ccc(C(=O)NCC(=O)N=Nc2c(O)n(Cc3ccccc3)c3ccccc23)cc1OC
15 | 0.0% | 0.8% | nt | -12.0% | nt | 39.8µM* | O=S1(=O)CC(O)C(N=Nc2c(O)n(Cc3ccccc3)c3ccccc23)C1 (stereo not drawn)
16 | 8.1% | -0.7% | 12.6µM* | -96.5% | ? | 14.6%[59 µM] | O=C(N=Nc1c(O)n(Cc2ccccc2)c2ccccc12)c1ccc(O)cc1
17 | -16.6% | -3.2% | 3.98µM* | -19.1% | 2.9% | -9.5% | O=C(CNC(=O)Cc1ccccc1)N=Nc1c(O)n(Cc2ccc3c(c2)OCO3)c2ccccc12
18 | 10.1% | nt | nt | 0.1% | nt | 21.6%[59 µM] | COC(=O)Cn1c(O)c(N=NC(=O)CNC(=O)c2ccc3c(c2)OCCO3)c2ccccc21
19 | ? | -0.7% | 18.0% | -23.0% | ? | ? | O=C(N=Nc1c(O)n(Cc2ccccc2)c2ccccc12)c1cc2ccccc2cc1O
20 | -18.2% | -4.9% | 6.4% | 3.3% | -20.0%[46 µM] | nt | Cc1ccc(Cn2c(O)c(N=O)c3ccccc32)cc1
21 | nt | nt | 9.8%[13.5 µM] | nt | nt | nt | Cn1c(=O)c2c(nc(N/N=C\c3ccccc3C(=O)O)n2C)n(C)c1=O
22 | 15.0% | 0.5% | 1.3% | -0.7% | nt | -5.0% | CC(C)CNC(=O)Cn1c(=O)c2c(ncn2CC(C)C)n(Cc2ccccc2)c1=O
23 | 5.4% | ? | ? | -5.3% | nt | -24.1% | COc1ccc2[nH]c3c(=O)n4c(nc3c2c1)SCC4
24 | -20.8% | -2.7% | ? | -7.1% | -7.4% | 1.78µM* | COc1ccc(OC)c2c1nc1n2CCS1
25 | 6.4% | ? | ? | -39.1% | -1.0% | ? | COc1ccc(-c2cc(=O)c3cc(C)ccc3[nH]2)cc1
26 | ? | 0.4% | ? | -0.3% | -9.1%[46 µM] | 50.1µM* | COc1ccc(-c2cc(=O)[nH]c(=S)[nH]2)cc1
27 | 16.4% | ? | ? | -36.0% | -5.2%[9.22 µM] | ? | COc1ccc(-c2ccc(C(=O)O)c(=O)[nH]2)cc1
28 | 13.4% | ? | ? | -39.4% | -10.7% | 79.4µM* | COc1ccc(-c2cc(=O)c3cc(OC)ccc3[nH]2)cc1
29 | nt | nt | nt | nt | nt | 3.5% | Cc1cccc(NS(=O)(=O)c2ccc(C(=O)N3CC(C)OC(C)C3)cc2)c1C (stereo not drawn)
30 | 50.1µM* | -24.2% | nt | 9.1% | nt | ? | COc1ccc(N2CCC(CNC(=S)Nc3ccc(C)cc3C)C2)cc1 (stereo not drawn)

Some of the entries so far, field by field:
8. CCCn1c(=O)[nH]c(=O)c2c1nc(-c1ccc(OC(F)(F)C(F)C(F)(F)F)cc1)n2CCOC (stereo not drawn)
  Sfp inh: -2.6%
  KDM4E inh: ?
  ALDH1A1 block: ?
  miR-21 reporter: 4.0%
  Lamin A splicing: 4.9%
  G9a block: 25.1µM*
9. CCCCn1c(-c2ccc(OC(F)F)cc2)nc2c1c(=O)[nH]c(=O)n2CC(C)C
  Sfp inh: 1.8%
  KDM4E inh: nt
  ALDH1A1 block: nt
  miR-21 reporter: 0.2%
  Lamin A splicing: nt
  G9a block: 50.1µM*

Following part.
# | Sfp inh | KDM4E inh | ALDH1A1 block | miR-21 reporter | Lamin A splicing | G9a block | SMILES
31 | -11.0% | ? | 25.1µM* | -9.2% | -9.9% | ? | COc1ccc(N2CCC(CNC(=S)Nc3cccc(C)c3)C2)cc1 (stereo not drawn)
32 | ? | ? | nt | 9.1% | nt | ? | COc1ccc(N2CCC(CNC(=S)Nc3c(C)cc(C)cc3C)C2)cc1 (stereo not drawn)
33 | -20.8% | ? | ? | -2.7% | 5.9% | ? | COc1ccc(N2CCC(CNC(=O)Nc3ccc(OC)cc3OC)C2)cc1 (stereo not drawn)
34 | -22.8% | ? | 8.91µM* | -4.5% | 0.1% | ? | COc1ccc(N2CCC(CNS(=O)(=O)c3cccc(C(F)(F)F)c3)C2)cc1 (stereo not drawn)
35 | nt | nt | nt | 1.6% | nt | -42.2%[59 µM] | COc1ccc(-c2nc(CSc3nnc(C)n4c3cc3sccc34)c(C)o2)cc1
36 | nt | nt | nt | 0.6% | nt | -4.7%[59 µM] | O=C(NCCc1ccccc1)c1ccc2c(c1)CCN2S(=O)(=O)c1ccccc1
37 | 10.9% | nt | nt | 5.0% | nt | ? | CCCCn1c(N)c(N(CCC(C)C)C(=O)C2CC(=O)N(c3ccc4c(c3)OCCO4)C2)c(=O)[nH]c1=O (stereo not drawn)
38 | nt | nt | nt | nt | nt | 14.1µM* | CCCCn1c(N)c(N(CC(C)C)C(=O)C2CC(=O)N(Cc3ccccc3)C2)c(=O)[nH]c1=O (stereo not drawn)
39 | nt | nt | nt | nt | nt | -5.9% | CCCCn1c(N)c(N(CC(C)C)C(=O)C2CC(=O)N(c3ccc(CC)cc3)C2)c(=O)[nH]c1=O (stereo not drawn)
40 | nt | nt | nt | nt | nt | 14.1µM* | CCCCn1c(N)c(N(CCC(C)C)C(=O)C2CC(=O)N(c3cccc(SC)c3)C2)c(=O)[nH]c1=O (stereo not drawn)
41 | 4.47µM* | 25.1µM* | 25.1µM* | -31.7% | ? | 50.1µM* | CO/C=C\C=C/c1nnn(-c2ccc(Cl)cc2)n1
42 | -2.9% | nt | nt | -0.2% | nt | ? | Cc1ccc(CSCc2ccc(C(=O)NC3CC3)o2)cc1
43 | 2.0% | 4.3% | 22.4µM* | -1.9% | nt | 16.9%[59 µM] | Cc1ccc(CSCc2ccc(C(=O)NC3CCCC3)o2)cc1
44 | ? | ? | ? | -10.7% | ? | 50.1µM* | CC(=O)c1ccc(-c2ccc(C(=O)NC3CCCCCC3)o2)cc1

High-throughput results: PubChem, National Center for Advancing Translational Sciences (NCATS)
